Reference: ChEMBL document CHEMBL1128968, “Phosphinic acid inhibitors of matrix metalloproteinases” (Bioorg Med Chem Lett, 1996)

The chains behind the UniProt entries cited, without tags or fusion partners. Where a name states a change or a piece, a line headed by the entry shows the natural chain unless it says otherwise.
UniProt P08254: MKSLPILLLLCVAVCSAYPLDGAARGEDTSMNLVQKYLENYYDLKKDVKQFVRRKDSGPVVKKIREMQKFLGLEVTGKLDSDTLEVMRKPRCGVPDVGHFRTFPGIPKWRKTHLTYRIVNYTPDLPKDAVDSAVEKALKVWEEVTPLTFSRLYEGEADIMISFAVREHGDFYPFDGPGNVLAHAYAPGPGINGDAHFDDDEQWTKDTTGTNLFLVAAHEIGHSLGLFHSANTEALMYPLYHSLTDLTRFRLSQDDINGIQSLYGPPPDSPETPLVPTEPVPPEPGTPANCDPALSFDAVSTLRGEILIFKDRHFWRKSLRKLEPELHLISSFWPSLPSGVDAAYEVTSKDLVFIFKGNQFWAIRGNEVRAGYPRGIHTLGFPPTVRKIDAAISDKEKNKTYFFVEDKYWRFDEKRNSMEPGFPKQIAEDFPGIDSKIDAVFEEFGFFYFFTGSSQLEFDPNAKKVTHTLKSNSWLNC

Target: Stromelysin-1 (Homo sapiens, UniProt P08254)
Assay: Inhibition of stromelysin-1 (MMP-3).

- Ki: 1.4 nM
Compound: CC(C)C[C@H](NC(=O)[C@H](CCc1ccccc1)CP(=O)(O)CCCCN1C(=O)c2ccccc2C1=O)C(=O)Nc1ccccc1
